Experimental data: BindingDB's records for doi:10.1038/nsb921 (Mahidol University, 2003)

Protein sequences, listed by entry. Tags and fused reporters are not part of them.
UniProt Q8I1R6, whole entry N51I/C59R/S108N/I164L: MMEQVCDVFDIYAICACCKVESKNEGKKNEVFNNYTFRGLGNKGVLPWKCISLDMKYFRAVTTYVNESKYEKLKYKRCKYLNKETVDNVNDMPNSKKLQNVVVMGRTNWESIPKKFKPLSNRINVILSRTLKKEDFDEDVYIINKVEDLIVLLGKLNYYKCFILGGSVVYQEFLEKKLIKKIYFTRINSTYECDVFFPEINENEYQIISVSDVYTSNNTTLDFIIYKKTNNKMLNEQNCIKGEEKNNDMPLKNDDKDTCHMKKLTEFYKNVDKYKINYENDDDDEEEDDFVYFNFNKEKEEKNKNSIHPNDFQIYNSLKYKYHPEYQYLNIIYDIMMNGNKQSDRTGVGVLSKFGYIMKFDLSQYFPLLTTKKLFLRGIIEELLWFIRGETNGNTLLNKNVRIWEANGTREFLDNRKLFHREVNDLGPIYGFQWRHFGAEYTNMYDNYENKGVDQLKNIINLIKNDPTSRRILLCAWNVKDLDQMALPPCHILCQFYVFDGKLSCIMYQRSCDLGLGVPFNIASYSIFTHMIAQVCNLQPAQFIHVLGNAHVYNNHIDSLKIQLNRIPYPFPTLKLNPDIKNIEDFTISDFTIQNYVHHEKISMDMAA

Biological target: Bifunctional dihydrofolate reductase-thymidylate synthase [N51I,C59R,S108N,I164L] (Plasmodium falciparum (isolate K1 / Thailand), UniProt Q8I1R6, C59R/I164L/N51I/S108N)
Experiment: Antimalarial Testing In Vitro (IC50) and Measurement of Inhibition Constant (Ki)
Settings: pH 7; 25 °C
Procedure: The activity of pfDHFR-TS was determined spectrophotometrically using a UV-Vis spectrophotometer.

With `CCc1nc(N)nc(N)c1-c1ccc(Cl)cc1` the IC50 was over 100 µM and the Ki was 0.283 µM.
